The values that follow are results of earlier work, collected in patent publication US20060110767A1, “Genotyping assay to predict cytochrome P4503A5 exression” (priority 2001, published 2006).

Protein sequences, listed by entry. Tags and fused reporters are not part of them.
UniProt P20815, whole entry: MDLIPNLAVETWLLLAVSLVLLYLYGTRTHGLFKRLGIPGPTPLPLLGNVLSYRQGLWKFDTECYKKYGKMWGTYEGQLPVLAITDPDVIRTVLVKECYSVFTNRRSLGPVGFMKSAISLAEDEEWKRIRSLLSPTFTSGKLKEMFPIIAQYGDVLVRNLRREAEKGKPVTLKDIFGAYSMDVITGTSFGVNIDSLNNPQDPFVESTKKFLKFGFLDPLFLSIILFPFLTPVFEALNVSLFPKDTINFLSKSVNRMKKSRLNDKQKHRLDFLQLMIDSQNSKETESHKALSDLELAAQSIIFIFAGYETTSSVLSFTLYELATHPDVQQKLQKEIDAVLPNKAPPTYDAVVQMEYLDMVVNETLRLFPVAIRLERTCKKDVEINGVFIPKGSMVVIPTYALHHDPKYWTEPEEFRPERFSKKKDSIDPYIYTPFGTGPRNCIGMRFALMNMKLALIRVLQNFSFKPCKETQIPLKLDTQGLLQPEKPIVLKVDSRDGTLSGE
UniProt P24462, whole entry: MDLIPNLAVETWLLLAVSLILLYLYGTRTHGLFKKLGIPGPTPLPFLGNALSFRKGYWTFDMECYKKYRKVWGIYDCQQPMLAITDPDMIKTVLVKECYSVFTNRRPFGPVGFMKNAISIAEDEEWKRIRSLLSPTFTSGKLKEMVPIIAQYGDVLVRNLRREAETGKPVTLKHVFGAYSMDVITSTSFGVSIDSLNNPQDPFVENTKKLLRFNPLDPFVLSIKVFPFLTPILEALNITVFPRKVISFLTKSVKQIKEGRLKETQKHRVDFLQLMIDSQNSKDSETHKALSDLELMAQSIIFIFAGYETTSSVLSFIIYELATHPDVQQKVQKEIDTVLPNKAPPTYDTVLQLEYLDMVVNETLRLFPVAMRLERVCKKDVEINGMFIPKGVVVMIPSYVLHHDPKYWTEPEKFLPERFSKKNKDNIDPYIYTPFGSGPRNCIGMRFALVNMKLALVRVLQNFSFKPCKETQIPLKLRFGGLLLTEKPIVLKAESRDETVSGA
UniProt P08684, whole entry: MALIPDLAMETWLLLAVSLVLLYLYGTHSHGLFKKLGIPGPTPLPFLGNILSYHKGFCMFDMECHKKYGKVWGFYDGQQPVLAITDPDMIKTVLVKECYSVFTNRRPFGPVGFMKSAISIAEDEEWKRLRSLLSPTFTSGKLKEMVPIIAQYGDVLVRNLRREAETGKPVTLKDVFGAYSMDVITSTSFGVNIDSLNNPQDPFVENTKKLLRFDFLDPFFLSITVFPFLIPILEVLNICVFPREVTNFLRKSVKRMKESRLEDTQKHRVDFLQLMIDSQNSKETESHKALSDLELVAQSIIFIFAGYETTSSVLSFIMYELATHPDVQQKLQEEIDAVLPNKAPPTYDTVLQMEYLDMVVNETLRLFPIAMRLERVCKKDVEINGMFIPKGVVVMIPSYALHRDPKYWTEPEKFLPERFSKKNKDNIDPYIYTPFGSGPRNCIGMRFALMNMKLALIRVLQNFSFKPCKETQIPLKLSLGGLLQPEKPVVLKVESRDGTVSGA

Targets include CYP3A5 (Homo sapiens, UniProt P20815); CYP3A7 (Homo sapiens, UniProt P24462); CYP3A4 (Homo sapiens, UniProt P08684).
What all share (design): key to the marks not given beside the values
Holding throughout (settings): cited from earlier work

For the substance “dehydroepiandrosterone 3-sulphate [DHEA-S]”, the “CYP isoforms expressed in cells 3A5” value at CYP3A5 is reported as “++”. In addition, the “CYP isoforms expressed in cells 3A7” value on CYP3A7 is on record as “+++”. Further, the “CYP isoforms expressed in cells 3A4” value at CYP3A4 was “++”.
